Yeast mating assay 2: variants of the scFv Ab-95

Values reported by Engelhart et al. 2022, doi:10.1038/s41597-022-01779-4 (FLAb copy).

The target is the same throughout: PDVDLGDISGINAS, from the HR2 region of SARS-CoV-2 spike.

Parent scFv Ab-95: VH joined to VL by the linker GGGGSGGGGSGGGGS. Changes lie in the light chain CDRs alone.
VH: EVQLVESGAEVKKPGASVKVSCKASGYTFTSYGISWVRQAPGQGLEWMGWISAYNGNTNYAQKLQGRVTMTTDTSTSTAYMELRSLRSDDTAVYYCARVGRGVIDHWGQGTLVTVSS
VL: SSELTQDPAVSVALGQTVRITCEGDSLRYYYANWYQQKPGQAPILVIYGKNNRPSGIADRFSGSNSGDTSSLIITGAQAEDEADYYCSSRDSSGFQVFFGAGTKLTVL

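The library (AAYL52) carries one to three amino acid substitutions per variant, with no insertions or deletions. The assay is AlphaSeq: two haploid yeast populations carry antibody and antigen on their surface. Mating (16 h, 30 °C) was followed by selection of diploids and sequencing of their barcodes. The ratio of observed to expected reads was calibrated, replicate by replicate, on BCL2-family standards whose Kd was known from biolayer interferometry. Mating was done three times.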

Positions count from residue 1 of the parent VL; K50F puts F in place of K.
Values are log10 of the apparent Kd in nM; lower means stronger binding.
A pair that was not seen in that replicate is written "n.d."; this usually means weak binding, but a binder can also be missed.
Three control strains display no target. For library AAYL52, 28% of the pairings with them gave a signal, with a median of 3.91 and one signal in twenty below 2.90, so weak values seen in few replicates may be background. Also given: how often the same scFv was detected with the empty control strains, with their mean in brackets.

changes,"log10 Kd, replicates",control signals
K50F+D91A+F95G,3.93 2.96 4.03,6/9 (3.86)
N52Y+R53F+F98V,4.91 3.63 4.37,4/9 (4.06)
R28C+K50H+S88Y,4.67 3.65 n.d.,2/9 (3.72)
Y31G+S89K+G94V,3.50 3.70 n.d.,0/9
L27I+Y31C+G94E,4.67 n.d. 2.77,1/9 (3.39)
S26F+N51M+S89N,n.d. n.d. n.d.,0/9
R28T+S88F+V97D,n.d. n.d. n.d.,2/9 (5.04)
S26M+Y29E+A32T,2.38 2.44 1.99,5/9 (3.83)
E23H+R90V+F95P,2.82 2.20 1.92,6/9 (4.01)
N52T+S55A+S93V,3.09 2.51 2.78,5/9 (4.35)
Y29S+P54E+R90K,2.72 2.77 2.46,4/9 (3.92)
Y30N+A32V+F98L,1.36 1.29 0.97,4/9 (4.79)
Y31H+R53N,2.53 2.32 3.19,3/9 (4.08)
Y31K+G49I+S92G,2.92 2.99 4.44,2/9 (3.95)
Y29H+K50R+S89L,3.05 2.95 4.40,5/9 (3.78)
N52W+R53F+S89L,n.d. n.d. n.d.,1/9 (3.58)
G49H+Q96K+F98T,3.99 5.45 3.31,3/9 (4.56)
L27M+Y31P+G49N,1.88 2.03 1.48,3/9 (3.82)
E23N+S89W+S92C,2.51 2.16 2.50,3/9 (3.90)
Y29N+N33E+R90S,4.26 4.75 n.d.,0/9
D25P+A32Y,4.14 n.d. 2.92,0/9
D25L+D91A+S93T,4.42 2.99 n.d.,2/9 (4.15)
Y29P+D91R+F95C,3.14 2.96 3.00,1/9 (3.56)
R28D+R90A+F98Y,n.d. n.d. n.d.,3/9 (3.20)
G24F,3.32 3.28 2.51,3/9 (4.16)
Y30K+S55Q,1.16 1.04 0.51,6/9 (4.39)
G49F+R90H+G94Y,n.d. n.d. n.d.,4/9 (3.87)
Y30R+N51P+R53Y,3.15 3.30 3.44,1/9 (3.22)
S26A+N33Q+Q96K,3.38 5.56 n.d.,7/9 (4.08)
R53A+S88N+R90A,3.86 n.d. 3.04,2/9 (4.64)
A32T+S89R+F95K,2.43 2.01 2.29,0/9
Y30H+S89T,1.32 1.29 0.94,7/9 (4.28)
G49M+S55K,3.16 3.00 n.d.,1/9 (4.33)
R28V+G49D,3.36 2.63 3.62,2/9 (3.56)
S55A+S93K,3.34 n.d. 3.05,0/9
G24A+S26V+R28T,n.d. n.d. n.d.,0/9
Y30R+K50G+F95S,1.32 1.23 1.07,5/9 (4.01)
Y30M+S55K+G94K,2.21 2.44 0.82,2/9 (3.74)
S88C+S93C+F98N,2.90 2.63 2.50,0/9
A32S+N52G+F95A,3.35 3.09 3.55,3/9 (3.27)
N52V+G94A+Q96Y,2.68 3.30 2.83,2/9 (4.06)

4 of these entries, quoted again:

changes,"log10 Kd, replicates",control signals
G24F,3.32 3.28 2.51,3/9 (4.16)
Y29N+N33E+R90S,4.26 4.75 n.d.,0/9
N52W+R53F+S89L,n.d. n.d. n.d.,1/9 (3.58)
Y29P+D91R+F95C,3.14 2.96 3.00,1/9 (3.56)

For reference, the parent read 2.31 as the reference entry and 2.25 as a member of this library.